SMILES strings stand for the structures. Several values for one entry are separate records, joined by “and”; a condition that tells them apart may be missing. Equal values may be shown once. Only a part is listed here, and it is no random draw. Results filed as inconclusive are left out. Activity calls are given as the source filed them. The call rests on the fitted dose curve; in most records, active means well fitted cell-killing curve with a large enough effect in the repeat runs; inconclusive means weak or mixed curves, or effect the other way; inactive means flat fitted curve, though single readings scatter.

Assay [1] can be described thus: cAMP Responsive Elements (CRE) small molecule antagonists, cell-based qHTS assay: qHTS cell viability counter screen (AID 2060913). Further: nearly all actives have a fitted effect of over 40% in size. Conditions: CRE-bla HEK293T viability, CellTiter-Glo luminescence, 5 h; at 92.4 µM (top of the series) unless noted. An excerpt:
(§1) U.S. Tox21 Program National Center for Advancing Translational Sciences [NCATS] Division of Preclinical Innovation [DPI] U.S. Environmental Protection Agency [EPA] National Institutes of Environmental Health Sciences [NIEHS] National Toxicology Program [NTP] U.S. Food and Drug Administration [FDA] Tox21 Assay Overview: CREB (cyclic-AMP Responsive Element Binding Protein) is a cellular transcription factor. It binds to certain DNA sequences called cAMP Responsive Elements (CRE) and regulates the transcription of the genes. […] This cell line can be used to find agonists/antagonists of the cyclic AMP signaling pathway. The activation of the report gene under culture conditions can be detected by fluorescence intensity. This cell line has been used to screen the Tox21 10K compound library to identify agonists that induce oxidative stress. The cytotoxicity of the Tox21 compound library against the CRE-bla cell line was tested in parallel by measuring the cell viability using CellTiter-Glo assay (Promega, Madison, WI) in the same wells.
Tox21 Assay Protocol Summary: CRE-bla Hek 293T cells were suspended in assay medium (DMEM containing 10% dialyzed FBS, 0.1 mM NEAA, 1 mM sodium pyruvate and 25 mM HEPES) and dispensed at 2,000 cells/4 uL /well into 1536-well black wall/clear bottom plates using a Multidrop Combi (ThermoFisher Scientific, Waltham, MA) dispenser. After the assay plates were incubated at 37 C/5% CO2 for 18 hrs, 23 nL of compounds dissolved in DMSO, positive controls or DMSO only was transferred to the assay plate by a pintool workstation (Kalypsys, San Diego, CA), followed by addition of 1 uL of 1.25uM NKH477 (0.25 uM as final concentration) in assay medium using a Flying Reagent Dispenser (Aurora Discovery, San Diego, CA). The plates were incubated at 37 C and 5% CO2 for 3 hrs. Then 1 uL of LiveBLAzer B/G FRET substrate (Invitrogen, Carlsbad, CA) was added to each well using Bioraptr Flying Reagent Dispenser (FRD, Aurora Discovery, San Diego, CA). The plates were incubated at room temperature for 2 h, then fluorescence intensities were measured using an Envision plate reader (PerkinElmer, Shelton, CT) at Excitation 405nm, Emission 460nm and 530nm. The % activity was determined from the ratio of 460nm/530nm. For cell viability readout that measures cytotoxicity, 4 uL /well of CellTiter-Glo reagent was added into the assay plates using Bioraptr FRD. After 30 min incubation at room temperature, the luminescence intensity in the assay plates was measured using a ViewLux (PerkinElmer, Shelton, CT) plate reader.

Assay [2] can be described thus: cAMP Responsive Elements (CRE) small molecule agonists, cell-based qHTS assay: qHTS cell viability counter screen (AID 2060914).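 Further: viability read after 3 h of compound exposure; nearly all actives have a fitted effect of over 50% in size.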 The settings on record: CRE-bla HEK293T viability, CellTiter-Glo luminescence, 5 h; at 92.4 µM (top of the series) unless noted.
Source text: National Center for Advancing Translational Sciences [NCATS]
Division of Preclinical Innovation [DPI]
U.S. Environmental Protection Agency [EPA]
National Institutes of Environmental Health Sciences [NIEHS]
National Toxicology Program [NTP]
U.S. Food and Drug Administration [FDA]
as §1, with “CREB” for “U.S. Tox21 Program National Center for Advancing Translational Sciences [NCATS] Division of Preclinical Innovation [DPI] U.S. Environmental Protection Agency [EPA] National Institutes of Environmental Health Sciences [NIEHS] National Toxicology Program [NTP] U.S. Food and Drug Administration [FDA] Tox21 Assay Overview: CREB”
Tox21 Assay Protocol Summary:
CRE-bla Hek 293T cells were suspended in assay medium (DMEM containing 10% dialyzed FBS, 0.1 mM NEAA, 1 mM sodium pyruvate and 25 mM HEPES) and dispensed at 2,000 cells/5 uL /well into 1536-well black wall/clear bottom plates using a Multidrop Combi (ThermoFisher Scientific, Waltham, MA) dispenser. After the assay plates were incubated at 37 C/5% CO2 for 18 hrs, 23 nL of compounds dissolved in DMSO, positive controls or DMSO only was transferred to the assay plate by a pintool workstation (Kalypsys, San Diego, CA). After the plates were incubated at 37 C/5% CO2 for 3 hrs, 1 uL of LiveBLAzer B/G FRET substrate (Invitrogen, Carlsbad, CA) was added to each well using Bioraptr Flying Reagent Dispenser (FRD, Aurora Discovery, San Diego, CA). The plates were incubated at room temperature for 2 h, then fluorescence intensities were measured using an Envision plate reader (PerkinElmer, Shelton, CT) at Excitation 405nm, Emission 460nm and 530nm. The % activity was determined from the ratio of 460nm/530nm. For cell viability readout that measures cytotoxicity, 4 uL /well of CellTiter-Glo reagent was added into the assay plates using Bioraptr FRD. After 30 min incubation at room temperature, the luminescence intensity in the assay plates was measured using a ViewLux (PerkinElmer, Shelton, CT) plate reader.
On the % scale 0 is the no-effect control and ±100 the full control effect.

As for `O=[N+]([O-])c1ccccc1[N+](=O)[O-]`, the viability change, negative = cytotoxic in assay [1] was inactive: 4.68% and inactive: 0.224%. For the same molecule, the activity change, negative = cytotoxicity in assay [2] is inactive: 2.78% and inactive: -2.33%.

As to `CCOP(=S)(Cl)OCC`, the viability change, negative = cytotoxic in assay [1] was inactive: -6.19%. Further, the activity change, negative = cytotoxicity in assay [2] is inactive: -9.75%.

Consider `CC(C)OP(OC(C)C)OC(C)C`, for which the viability change, negative = cytotoxic in assay [1] is inactive: 7.28%. Moreover, the activity change, negative = cytotoxicity in assay [2] is inactive: -4.17%.

For the molecule `CCC(=O)N(c1ccccc1)C1CCNCC1`, in assay [1], the viability change, negative = cytotoxic is inactive: 12.3% [at 42.5 µM]. For the same molecule, in assay [2], the activity change, negative = cytotoxicity was inactive: -6.64% [at 42.5 µM].

As for `ClCCNCCCl`, the viability change, negative = cytotoxic in assay [1] is inactive: -1.57%. In assay [2], the activity change, negative = cytotoxicity was inactive: -0.542%.

Turning to `CCOP(=O)(Cl)Cl`, the viability change, negative = cytotoxic in assay [1] is inactive: 15% and inactive: -2.24%. Moreover, in assay [2], the activity change, negative = cytotoxicity is inactive: 2.68% and inactive: -9.86%.

As for `CCOC(=O)N1CCC(=O)CC1`, the viability change, negative = cytotoxic in assay [1] was inactive: -1.31% [at 42.5 µM]. Further, the activity change, negative = cytotoxicity in assay [2] is inactive: -0.882% [at 42.5 µM].

Take `ClCCOP(OCCCl)OCCCl`: the viability change, negative = cytotoxic in assay [1] is inactive: 2.71% and inactive: -3.93%. Also, the activity change, negative = cytotoxicity in assay [2] is inactive: -5.94% and inactive: -10.2%.

The record behind these values is PubChem BioAssay (Tox21).
